Results taken from ChEMBL document CHEMBL2176927, “Potent, selective, and orally bioavailable inhibitors of the mammalian target of rapamycin kinase domain exhibiting single agent antiproliferative activity” (J Med Chem, 2012).

Assay: Selectivity ratio of Ki for PI3Kalpha to Ki for mTOR

Ratio Ki: 60
Compound: CCNC(=O)Nc1ccc(-c2nc3c(c(N4CCOCC4)n2)CCN(c2ncccn2)C3)cc1
